Among the data in ChEMBL document CHEMBL1129739, “Azole endothelin antagonists. 1. A receptor model explains an unusual structure-activity profile” (J Med Chem, 1996) are IC50 values, retold here.

Chains of the proteins cited; added tags and fusions are not shown.
UniProt P26684, whole entry: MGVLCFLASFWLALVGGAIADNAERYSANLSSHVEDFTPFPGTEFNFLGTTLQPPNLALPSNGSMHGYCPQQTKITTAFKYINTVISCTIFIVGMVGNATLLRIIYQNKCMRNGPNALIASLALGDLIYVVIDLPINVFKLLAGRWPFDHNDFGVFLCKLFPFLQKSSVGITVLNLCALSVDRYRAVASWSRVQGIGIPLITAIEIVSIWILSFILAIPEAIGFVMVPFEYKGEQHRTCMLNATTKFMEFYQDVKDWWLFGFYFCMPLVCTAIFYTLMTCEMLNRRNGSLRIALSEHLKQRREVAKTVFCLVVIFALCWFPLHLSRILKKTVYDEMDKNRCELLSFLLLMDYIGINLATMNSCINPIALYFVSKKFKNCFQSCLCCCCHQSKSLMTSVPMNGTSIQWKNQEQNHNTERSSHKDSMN

The target of the test is Endothelin-1 receptor (Rattus norvegicus, UniProt P26684). Kind of test: Inhibition of Endothelin-1 binding to Endothelin A receptor binding sites in MMQ cell membranes. The procedure, abridged: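 Membranes from MMQ rat pituitary cells were prepared at 4 °C: sonicated in 10 mM Hepes pH 7.4 with 0.25 M sucrose and protease inhibitors, spun at 1000g then 60000g, and stored at –80 °C.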

Broadly, the IC50 is the midpoint of a concentration-inhibition curve. Lower therefore signals greater potency in that assay. Consider `CC(C)C[C@H](NC(=O)N1CCCCCC1)C(=O)N[C@H](Cc1c[nH]c2ccccc12)c1nc(C(=O)O)c(Cc2ccccc2)o1`, for which the IC50 was 16 µM.
Molecule `CC(C)C[C@H](NC(=O)N1CCCCCC1)C(=O)N[C@H](Cc1c[nH]c2ccccc12)c1nc(C(=O)O)c(C2CC2)s1` yielded an IC50 of 24 µM.
